# Measurements: patent publication US20230407304A1, “USE OF MICRORNA INHIBITION TO PREVENT AND TREAT OSTEOARTHRITIS AND OTHER INFLAMMATORY DISEASES” (VIRGINIA COMMONWEALTH UNIVERSITY, priority 2020, published 2023)
# Tested on: rat articular chondrocytes (rArCs)
# Test: WNT/β-catenin agonist or antagonist treatment of rArCs with or without IL-1β
# Assay type: cell-based
SMILES,MMP-13 production compared to control groups,total DNA,PGE2 production
"Cn1ncnc2c(=O)n(C)c(=O)nc1-2 [PKF, PKF-118-310]",no difference,but not 0.1 μM or 0.5 μM PKF,
"[Cl-].[Li+] [LiCl, lithium chloride]",,,A similar trend was seen
